In PMC11148045, “Structural basis for recognition of 26RFa by the pyroglutamylated RFamide peptide receptor” (Cell Discovery, 2024):
pEC50: −log10 of the molar value.

Protein sequences, listed by entry. Tags and fused reporters are not part of them. Lines headed by an entry give the natural chain unless they say otherwise; changes in a name come on top.
UniProt Q9GZQ6: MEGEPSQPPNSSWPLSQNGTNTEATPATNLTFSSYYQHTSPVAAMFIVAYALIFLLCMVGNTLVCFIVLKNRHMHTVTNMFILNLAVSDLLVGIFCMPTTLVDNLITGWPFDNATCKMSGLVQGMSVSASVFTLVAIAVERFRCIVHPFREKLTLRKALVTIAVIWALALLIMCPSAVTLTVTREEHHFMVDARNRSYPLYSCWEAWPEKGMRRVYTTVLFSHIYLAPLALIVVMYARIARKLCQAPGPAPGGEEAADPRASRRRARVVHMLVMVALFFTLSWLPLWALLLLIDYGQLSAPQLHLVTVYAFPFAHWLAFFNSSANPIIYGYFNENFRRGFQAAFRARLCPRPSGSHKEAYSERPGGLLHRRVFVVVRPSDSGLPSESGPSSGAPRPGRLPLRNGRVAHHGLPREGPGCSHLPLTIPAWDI

Biological target: T1, NPFF1R (WT) (Homo sapiens, UniProt Q9GZQ6)
T1 construct: expressed in transfected cells; host or cells: HEK293 cells stably expressing Gα16
Assay: NPVF-induced calcium mobilization, wild-type receptor
Assay type: cell-based
Details: HEK293 stably expressing Gα16, Fluo-4, mean ± S.E.M., n ≥ 3

SMILES: CC(C)C[C@H](NC(=O)[C@H](CC(N)=O)NC(=O)[C@@H]1CCCN1C(=O)[C@@H](N)C(C)C)C(=O)N1CCC[C@H]1C(=O)N[C@@H](CCC(N)=O)C(=O)N[C@@H](CCCNC(=N)N)C(=O)N[C@@H](Cc1ccccc1)C(N)=O [NPVF]
- pEC50: 7.45
